Data reported in ChEMBL document CHEMBL4425102, “Structure-Based Design of Tetrahydroisoquinoline-7-carboxamides as Selective Discoidin Domain Receptor 1 (DDR1) Inhibitors” (J Med Chem, 2016).

Assay: Apparent clearance in ICR mouse at 1 mg/kg, iv measured after 5 mins to 24 hrs by HPLC/MS analysis
Type: ADME, organism-based
Conditions: in vivo

Q: Which “CL(app)” value does the source give for `Cc1cn(-c2cc(NC(=O)c3ccc4c(c3)CN(c3cncnc3)C[C@@H]4C)cc(C(F)(F)F)c2)cn1` here?
A: The value was 13 mL/min/kg.
